Measured values taken from ChEMBL document CHEMBL4828708 (Eur J Med Chem, 2021).

The chains behind the UniProt entries cited, without tags or fusion partners.
UniProt P0DMS8, whole entry: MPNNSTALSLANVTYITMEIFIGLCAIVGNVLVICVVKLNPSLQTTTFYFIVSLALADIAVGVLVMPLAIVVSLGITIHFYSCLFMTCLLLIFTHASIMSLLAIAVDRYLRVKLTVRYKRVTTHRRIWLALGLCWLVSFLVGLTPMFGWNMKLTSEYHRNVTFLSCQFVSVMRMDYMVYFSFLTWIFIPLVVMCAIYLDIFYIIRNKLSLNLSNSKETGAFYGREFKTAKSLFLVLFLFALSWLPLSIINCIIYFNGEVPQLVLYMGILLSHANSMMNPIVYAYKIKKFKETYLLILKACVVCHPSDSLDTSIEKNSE

Target: Adenosine receptor A3 (Homo sapiens, UniProt P0DMS8)
Experiment: Displacement of [3H]NECA from human adenosine A3 receptor expressed in HEK293 cell membrane at 10 uM incubated for 180 mins by microplate beta scintillation counting based radioligand inhibition assay relative to control

inhibition: 10%
SMILES: Nc1ncnc2c1ncn2[C@@H]1O[C@H](CO)[C@@H](O)[C@H]1O
